Molecular target: m1 muscarinic acetylcholine receptor (m1AchR) (Mus musculus, UniProt P12657)
Settings: 100 μM carbachol 30 min, cells over-expressing the m1AchR, Fig. 2

By UniProt entry, the sequences of proteins in these tests, tags left out. Where a name states a change or a piece, a line headed by the entry shows the natural chain unless it says otherwise.
UniProt P12657: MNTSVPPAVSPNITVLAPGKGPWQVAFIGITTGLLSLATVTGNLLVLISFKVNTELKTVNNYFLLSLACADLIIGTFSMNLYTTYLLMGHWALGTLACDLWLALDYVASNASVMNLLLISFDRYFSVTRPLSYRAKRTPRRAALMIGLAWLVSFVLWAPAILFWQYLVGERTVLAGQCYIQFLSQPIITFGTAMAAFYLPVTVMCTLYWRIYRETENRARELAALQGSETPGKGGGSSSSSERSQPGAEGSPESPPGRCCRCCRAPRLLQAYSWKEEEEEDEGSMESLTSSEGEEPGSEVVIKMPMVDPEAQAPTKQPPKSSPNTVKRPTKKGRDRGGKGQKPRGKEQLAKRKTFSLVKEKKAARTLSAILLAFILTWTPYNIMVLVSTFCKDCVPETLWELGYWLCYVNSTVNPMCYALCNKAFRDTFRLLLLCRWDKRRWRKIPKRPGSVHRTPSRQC

SMILES: C[N+](C)(C)CCOC(N)=O [carbachol]
- D1DAR phosphorylation on carbachol stimulation: significant increase in D1DAR phosphorylation

— publication PMC2996484 (Journal of neurochemistry, 2010)
